For two compounds, IC50 and Ki results are on record in ChEMBL document CHEMBL4334470, “Small molecule modulators targeting protein kinase CK1 and CK2” (Eur J Med Chem, 2019).

Sequences of proteins named here, by UniProt entry; tags and fusion partners are left off. A change or cut given only in a name is not applied to a line headed by its entry.
UniProt P48730: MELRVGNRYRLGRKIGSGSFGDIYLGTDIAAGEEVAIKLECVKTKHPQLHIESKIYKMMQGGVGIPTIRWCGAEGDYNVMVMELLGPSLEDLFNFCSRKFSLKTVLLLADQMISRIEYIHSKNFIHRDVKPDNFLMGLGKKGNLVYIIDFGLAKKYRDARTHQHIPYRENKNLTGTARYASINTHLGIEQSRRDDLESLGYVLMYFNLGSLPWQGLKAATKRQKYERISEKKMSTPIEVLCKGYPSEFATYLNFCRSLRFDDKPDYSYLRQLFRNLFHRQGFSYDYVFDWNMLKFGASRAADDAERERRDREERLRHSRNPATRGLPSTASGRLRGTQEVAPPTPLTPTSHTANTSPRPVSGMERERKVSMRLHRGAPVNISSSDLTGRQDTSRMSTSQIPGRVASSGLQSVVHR

The target in assay [1] is Casein kinase I isoform delta (Homo sapiens, UniProt P48730). The assay can be described thus: Inhibition of human CK1delta in presence of [gamma33P]-ATP.
Assay [2] in a line: Inhibition of CK2alpha (unknown origin).

As usually defined, the IC50 is the point on the concentration scale where inhibition reaches its midpoint. By Ki is commonly meant a measure of affinity in units of concentration, obtained from inhibition or displacement. Lower therefore signals a stronger hold on the target.

`CN1Cc2nccc(-c3cn(C)nc3-c3ccc(F)cc3)c2C1=O`: the IC50 in assay [1] was 13 nM.

Turning to `O=c1cc(-c2ccc(O)cc2)oc2cc(O)cc(O)c12` [APIGENIN], in assay [2], the affinity, expressed as Ki, was 740 nM.
